The list shows a part of the results, in another mix than the full data. The source made the active and inactive calls.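 Rule for the calls: active = plate-corrected calcium response at least 3 library SD above typical, normal starting fluorescence, not activating the receptor alone; inactive = the rest.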
target: Mas-related G-protein coupled receptor member X1 (Homo sapiens) (UniProt Q96LB2); assay: allosteric enhancers of human MrgX1 signaling – HEK293 cells, Fluo-4 calcium flux, primary screen (AID 588675); conditions: MrgX1-HEK293, Fluo-4 calcium flux, FDSS, at 10 µM; hits give high values;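 note: compound read alongside a low EC10 to EC30 dose of BAM8-22 agonist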;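 for B-score: peak minus trough fluorescence over baseline measured at the second addition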

Chains of the proteins cited; added tags and fusions are not shown.
UniProt Q96LB2, whole entry: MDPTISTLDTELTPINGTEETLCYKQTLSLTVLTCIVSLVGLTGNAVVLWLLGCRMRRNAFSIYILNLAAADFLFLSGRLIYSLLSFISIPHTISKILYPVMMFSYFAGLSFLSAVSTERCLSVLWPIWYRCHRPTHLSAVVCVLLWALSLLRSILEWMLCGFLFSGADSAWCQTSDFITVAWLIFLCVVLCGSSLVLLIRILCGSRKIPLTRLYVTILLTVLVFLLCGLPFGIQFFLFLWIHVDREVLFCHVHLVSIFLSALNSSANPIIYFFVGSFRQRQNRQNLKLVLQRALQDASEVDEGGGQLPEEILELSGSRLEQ

SMILES | outcome | B-score
COc1ccc(N/C(=N/P(=O)(N2CCOCC2)N2CCOCC2)N2CCOCC2)cc1 | inactive | 
COc1ccc2nc(NP(=O)(c3ccccc3)c3ccccc3)sc2c1 | inactive | 
COc1cc(I)ccc1[As](=O)(O)O | inactive | 
O=C(OC1CN2CCC1CC2)C12CC3CC(CC(C3)C1)C2 (stereo not drawn) | inactive | 
CCN(CC)CCCOC(=O)C(O)(c1ccccc1)c1ccccc1 | inactive | 
Cc1cc(=O)[nH]c(N[N+](=O)[O-])n1 | inactive | 
Cc1c2c(nc3ccccc13)SC(C(Cl)Cl)C2 (stereo not drawn) | inactive | 
CP(=O)(Nc1ccccn1)Oc1ccccc1 (stereo not drawn) | inactive | 
COc1ccccc1OP(C)(=O)Nc1ccc(C)cc1C (stereo not drawn) | inactive | 
CCc1ccc(OP(C)(=O)O)cc1 | inactive | 
Nc1cc(N)c2nonc2c1[N+](=O)[O-] | inactive | 
Cc1c(NP(C)(=O)Oc2ccc(C(C)C)cc2)c(=O)n(-c2ccccc2)n1C (stereo not drawn) | inactive | 
O=[N+]([O-])c1cc([N+](=O)[O-])c(Nc2ccccn2)c([N+](=O)[O-])c1 | inactive | 
CC(C)CC(=O)NC(Sc1ccc(Cl)cc1)C(Cl)(Cl)Cl (stereo not drawn) | inactive | 
Oc1ccccc1CNc1ccccn1 | inactive | 
O=C(NC(Sc1ccncn1)C(Cl)(Cl)Cl)c1ccccc1 (stereo not drawn) | inactive | 
Cc1c2non([O-])c-2c(C)[n+](=O)[n+]1[O-] | inactive | 

SMILES | outcome | B-score
COc1ccccc1OP(=O)(Nc1ccc(C)cn1)Oc1ccccc1OC | inactive | 
COc1ccc(OP(C)(=O)Nc2ccccn2)cc1 (stereo not drawn) | inactive | 
Cc1ccc(OP(=O)(Nc2nccs2)Oc2ccc(C)cc2)cc1 | inactive | 
CN1CCCC(OC(=O)C(c2ccccc2)c2ccccc2)C1 (stereo not drawn) | inactive | 
CN(C)CCOC(=O)C(O)(c1ccccc1)C1CCCC1 (stereo not drawn) | inactive | 
Clc1ccc(Cl)c(NC2=NCC(CBr)S2)c1 (stereo not drawn) | inactive | 
NC(=O)c1cc([N+](=O)[O-])cc([N+](=O)[O-])c1N | inactive | 
CN(C(=O)Cc1ccc(Cl)c(Cl)c1)[C@H]1CCCC[C@H]1N1CCCC1 | inactive | 
COc1ccccc1OP(C)(=O)Nc1ccc(Br)cc1 (stereo not drawn) | inactive | 
Cc1ccc(N/C(=N/P(=O)(N2CCOCC2)N2CCOCC2)N2CCOCC2)cc1 | inactive | 
CCN(N=Nc1nonc1N)c1nonc1N | inactive | 
Nc1cccc2ccc([As](=O)(O)O)cc12 | inactive | 
CP(=O)(Nc1ccc(Cl)cc1Cl)Oc1ccccc1 (stereo not drawn) |  | active: 11.4
CP(=O)(OCCOc1ccccc1)OCCOc1ccccc1 | inactive | 
Cc1nc2ccc3ccccc3c2o1.O=[N+]([O-])c1cc([N+](=O)[O-])c(O)c([N+](=O)[O-])c1 | inactive | 
O=[N+]([O-])c1cc([N+](=O)[O-])c(CCN2CCOCC2)c([N+](=O)[O-])c1 | inactive | 
